From PubChem BioAssay AID1979 (Broad Institute, 2009)
This is a selection; strong and weak results do not stand in their true shares. Some results for these compounds are left out of this collection, so the calls shown say nothing about other tests. Calls of active or inactive are those of the source.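 Rule for the calls: active = growth inhibition above about 58% in most replicates (limit read from the data, passing the limit was not always enough); inconclusive = exactly half the replicates above a set limit; inactive = most replicates below a set limit.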

Assay: C. albicans growth inhibition with fluconazole, primary screen, CaCi-2 strain, Alamar Blue fluorescence (AID 1979);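 note: all wells also contain fluconazole at 8 µg/ml as a sub-toxic cotreatment; 0% = median of DMSO wells and 100% = median of geldanamycin control wells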
Conditions: C. albicans CaCi-2 (fluconazole-resistant clinical isolate) + fluconazole, 48 h, hits give high values, concentration not given here

**Q.** Which growth inhibition does the source give for `Cc1ccc(C(=O)NCC2(N3CCCCC3)CCCCC2)cc1` here?
**A.** The growth inhibition was inactive: -10.1%.

**Q.** For `CC(C)N1C(=O)CC2(CCN(CCOC(=O)C(O)(c3ccccc3)c3ccccc3)CC2)C1=O`, which growth inhibition is on record?
**A.** Its growth inhibition is inactive: 2.07%.

**Q.** With `CCN(CC)CC(C)C(C)OC(=O)C(O)(c1ccccc1)c1ccccc1` (centres undefined) as the compound, how does the growth inhibition read?
**A.** The growth inhibition was inactive: -6.12%.

**Q.** With `COc1cc(SC)ccc1C(=O)NCC1(N(C)C)CCCCC1` as the compound, how does the growth inhibition read?
**A.** The growth inhibition was inactive: 14.4%.

**Q.** With `CN1[C@@H]2CC[C@H]1CC(OC(=O)C(O)(c1ccccc1)c1ccccc1)C2` (some centres undefined) as the compound, how does the growth inhibition read?
**A.** The growth inhibition was inactive: -9.56%.

**Q.** For `O=C(NCC1(N2CCCCC2)CCCCC1)c1cc([N+](=O)[O-])ccc1Cl`, which growth inhibition is on record?
**A.** Its growth inhibition is inactive: -14.1%.

**Q.** For `Cc1cc(C(=O)NCC2(N3CCCCC3)CCCCC2)ccc1[N+](=O)[O-]`, which growth inhibition is on record?
**A.** Its growth inhibition is inactive: -28.1%.

**Q.** Which growth inhibition does the source give for `CCN1CCCC(OC(=O)C2(O)c3ccccc3C=Cc3ccccc32)C1` (centres undefined) here?
**A.** Its growth inhibition is inactive: 0.732%.

**Q.** For `O=C(NCC1(N2CCCCC2)CCCCC1)c1cccc(Br)c1`, which growth inhibition is on record?
**A.** Its growth inhibition is inactive: -4.34%.

**Q.** For `COc1ccc(C(=O)NCC2(N(C)C)CCCCC2)cc1`, which growth inhibition is on record?
**A.** Its growth inhibition is inactive: -18.1%.

**Q.** For `C=CCN1CCN(CCOC(=O)C(O)(c2ccccc2)c2ccccc2)CC1`, which growth inhibition is on record?
**A.** The growth inhibition was inactive: -7.99%.

**Q.** For `O=C(NCC1(N2CCCCC2)CCCCC1)c1cc(F)c(F)cc1Cl`, which growth inhibition is on record?
**A.** The growth inhibition was inactive: -4.95%.

**Q.** Which growth inhibition does the source give for `Cc1ccccc1C(=O)NCC1(N2CCCCC2)CCCCC1` here?
**A.** Its growth inhibition is inactive: -27.4%.

**Q.** Which growth inhibition does the source give for `CN(C)C1CCCC1OC(=O)C(O)(c1ccccc1)c1ccccc1` (centres undefined) here?
**A.** The growth inhibition was inactive: -28.6%.

**Q.** Which growth inhibition does the source give for `CN(C)c1ccc(C(=O)NCC2(N(C)C)CCCCC2)cc1` here?
**A.** The growth inhibition was inactive: -6.24%.

**Q.** With `O=C(NCC1(N2CCCCC2)CCCCC1)c1cccc(Cl)c1` as the compound, how does the growth inhibition read?
**A.** Its growth inhibition is inactive: 1.12%.

**Q.** Which growth inhibition does the source give for `COc1cccc(C(=O)NCC2(N3CCCCC3)CCCCC2)c1` here?
**A.** The growth inhibition was inactive: -13.1%.

**Q.** For `COc1ccc(Cl)cc1C(=O)NCC1(N(C)C)CCCCC1`, which growth inhibition is on record?
**A.** The growth inhibition was inactive: 0.25%.

**Q.** For `COc1cc(C(=O)NCC2(N(C)C)CCCCC2)c([N+](=O)[O-])cc1OC`, which growth inhibition is on record?
**A.** Its growth inhibition is inactive: -10.1%.

**Q.** With `CN(C)C1(CNC(=O)c2ccc(Br)cc2)CCCCC1` as the compound, how does the growth inhibition read?
**A.** The growth inhibition was inactive: -5.45%.

**Q.** With `CN(C)c1cccc(C(=O)NCC2(N(C)C)CCCCC2)c1` as the compound, how does the growth inhibition read?
**A.** The growth inhibition was inactive: 0.229%.

**Q.** With `CC(C)Oc1ccc(C(=O)NCC2(N(C)C)CCCCC2)cc1` as the compound, how does the growth inhibition read?
**A.** The growth inhibition was inactive: 1.11%.

**Q.** Which growth inhibition does the source give for `COc1ccc(Br)c(C(=O)NCC2(N3CCCCC3)CCCCC2)c1` here?
**A.** Its growth inhibition is inactive: -1.62%.

**Q.** With `O=C(OC1CN2CCC1CC2)C(CO)(c1ccccc1)c1ccccc1` (centres undefined) as the compound, how does the growth inhibition read?
**A.** The growth inhibition was inactive: -1.04%.
